Values after ≈ are worked out from the molar mass of the structure shown. Where a name gives a salt, the structure may show the parent alone.
Key:
[1] = test system: Klebsiella oxytoca; assay: MIC range, recent clinical and veterinary isolates; format: cell-based; details: 18 h, read-out: MIC Range
[2] = test system: Listeria monocytogenes; assay: MIC range, recent clinical and veterinary isolates; format: cell-based; details: 18 h, read-out: MIC Range

| Compound | MIC [1] [µg/mL] | MIC [2] [µg/mL] |
| --- | --- | --- |
| CN(C)CC(=O)Nc1ccc2c(c1O)C(=O)C1=C(O)[C@]3(O)C(=O)C(C(N)=O)=C(O)[C@@H](N(C)C)C3CC1C2 (stereo partly drawn) [CC, [4S-(4alpha,12aalpha)]-4-(Dimethylamino)-9-[[(dimethylamino)acetyl]amino]-1,4,4a,5,5a,6,11,12a-octahydro-3,10,12,12a-tetrahydroxy-1,11-dioxo-2-naphthacenecarboxamide dihydrochloride] | 0.25 to 1 |  |
| CN(C)[C@@H]1C(O)=C(C(N)=O)C(=O)[C@@]2(O)C(O)=C3C(=O)c4c(O)cccc4[C@@](C)(O)[C@H]3C[C@@H]12 [T, Tetracycline] |  | 0.12 to 0.5 (≈ 0.27 to 1.13 µM) |
